The subject of this experiment is Mus musculus. Briefly: Optimal dose in mice (sub LD10 mg/kg).

Take `C/N=C(/CCNC(=O)c1cc(NC(=O)c2cc(NC(=O)c3cc(NC(=O)c4ccc(N(CCCl)CCCl)cc4)cn3C)cn2C)cn1C)NC.Cl`: the OD was 3.13 mg/kg.

`CN(C)CCCNC(=O)c1cc(NC(=O)c2cc(NC(=O)c3cc(NC(=O)c4ccc(N(CCCl)CCCl)cc4)cn3C)cn2C)cn1C.Cl` had an OD of 25 mg/kg.

In turn, `CCN(CCCl)c1ccc(C(=O)Nc2cc(C(=O)Nc3cc(C(=O)Nc4cc(C(=O)NCCN=C(N)N)n(C)c4)n(C)c3)n(C)c2)cc1.Cl` gave an OD of 6.25 mg/kg.

`Cl.Cn1cc(NC(=O)c2cc(NC(=O)c3cc(NC(=O)/C=C/c4ccc(N(CCCl)CCCl)cc4)cn3C)cn2C)cc1C(=O)NCCC(=N)N` had an OD of 6.25 mg/kg.

Consider `C/N=C(/CCNC(=O)c1cc(NC(=O)c2cc(NC(=O)c3cc(NC(=O)/C=C/c4ccc(N(CCCl)CCCl)cc4)cn3C)cn2C)cn1C)NC.Cl`, for which the OD is 1.56 mg/kg.

Regarding `Cn1cc(NC(=O)c2cc(NC(=O)c3cc(NC(=O)c4ccc(N(CCCl)CCCl)cc4)cn3C)cn2C)cc1C(=O)NCCC(=N)NN`, the OD was 12.5 mg/kg.

On to `CCN(CCCl)c1ccc(C(=O)Nc2cc(C(=O)Nc3cc(C(=O)Nc4cc(C(=O)NCCC(=N)NC)n(C)c4)n(C)c3)n(C)c2)cc1.Cl`, for which the OD came out at 3.13 mg/kg.

`Cn1cc(NC(=O)c2cc(NC(=O)c3cc(NC(=O)c4ccc(N(CCCl)CCCl)cc4)cn3C)cn2C)cc1C(=O)NCCC(=N)NO` gave an OD of 12.5 mg/kg.

For the compound `Cn1cc(NC(=O)c2cc(NC(=O)c3cc(NC(=O)c4ccc(N(CCCl)CCCl)cc4)cn3C)cn2C)cc1C(=O)NCCC(=O)O`, the OD was 50 mg/kg.

As for `CCN(CCCl)c1ccc(C(=O)Nc2cc(C(=O)Nc3cc(C(=O)Nc4cc(C(=O)NCCC(=N)N)n(C)c4)n(C)c3)n(C)c2)cc1.Cl`, the OD was 3.13 mg/kg.

Turning to `Cn1cc(NC(=O)c2cc(NC(=O)c3cc(NC(=O)/C=C/c4ccc(N(CCCl)CCCl)cc4)cn3C)cn2C)cc1C(=O)NCCC(=N)NO`, the OD is 6.25 mg/kg.

`CNC(=N)CCNC(=O)c1cc(NC(=O)c2cc(NC(=O)c3cc(NC(=O)c4ccc(N(CCCl)CCCl)cc4)cn3C)cn2C)cn1C.Cl` came in with an OD of 3.13 mg/kg.

`Cn1cc(NC(=O)c2cc(NC(=O)c3cc(NC(=O)c4ccc(N(CCCl)CCCl)cc4)cn3C)cn2C)cc1C(=O)NCCC#N` returned an OD of 25 mg/kg.

Turning to `Cl.Cn1cc(NC(=O)c2cc(NC(=O)c3cc(NC(=O)c4ccc(N(CCCl)CCCl)cc4)cn3C)cn2C)cc1C(=O)NCCCc1ncc[nH]1`, the OD is 6.25 mg/kg.

Take `Cn1cc(NC(=O)c2cc(NC(=O)c3cc(NC(=O)c4ccc(N(CCCl)CCCl)cc4)cn3C)cn2C)cc1C(=O)NCCC(=N)NC#N`: the OD is 6.25 mg/kg.

The compound `Cl.Cn1cc(NC(=O)c2cc(NC(=O)c3cc(NC(=O)c4ccc(N(CCCl)CCCl)cc4)cn3C)cn2C)cc1C(=O)NCCN=C(N)N` displayed an OD of 12.5 mg/kg.

`CNC(=N)CCNC(=O)c1cc(NC(=O)c2cc(NC(=O)c3cc(NC(=O)/C=C/c4ccc(N(CCCl)CCCl)cc4)cn3C)cn2C)cn1C.Cl` had an OD of 3.13 mg/kg.

`Cl.Cn1cc(NC(=O)c2cc(NC(=O)c3cc(NC(=O)/C=C/c4ccc(N(CCCl)CCCl)cc4)cn3C)cn2C)cc1C(=O)NCCN=C(N)N` displayed an OD of 3.13 mg/kg.

For the compound `CCN(CCCl)c1ccc(C(=O)Nc2cc(C(=O)Nc3cc(C(=O)Nc4cc(C(=O)NCCC(=N)NC#N)n(C)c4)n(C)c3)n(C)c2)cc1`, the OD was 6.25 mg/kg.

For the compound `Cn1cc(NC(=O)c2cc(NC(=O)c3cc(NC(=O)/C=C/c4ccc(N(CCCl)CCCl)cc4)cn3C)cn2C)cc1C(=O)NCCC(=N)NC#N`, the OD was determined as 12.5 mg/kg.

The values are drawn from ChEMBL document CHEMBL1129802, “Novel phenyl nitrogen mustard and half-mustard derivatives of amidino-modified distamycin” (1997).
